Test results: patent US20190092850A1 (NUMAB INNOVATION, published 2019)

By UniProt entry, the sequences of proteins in these tests, tags left out. Residues count along the entry.
UniProt P01375, 77-233 limits assumed: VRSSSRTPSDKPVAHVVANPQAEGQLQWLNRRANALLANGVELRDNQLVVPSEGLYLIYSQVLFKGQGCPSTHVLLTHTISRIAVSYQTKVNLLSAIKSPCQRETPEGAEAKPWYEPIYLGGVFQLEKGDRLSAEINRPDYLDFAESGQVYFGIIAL

Molecular target: recombinant human TNFα (human, UniProt P01375 77-233)
Test: cell-based or functional assay

B1: infliximab (antibody, V domains shown)
VH: EVKLEESGGGLVQPGGSMKLSCVASGFIFSNHWMNWVRQSPEKGLEWVAEIRSKSINSATHYAESVKGRFTISRDDSKSAVYLQMTDLRTEDTGVYYCSRNYYGSTYDYWGQGTTLTVSS
VL: DILLTQSPAILSVSPGERVSFSCRASQFVGSSIHWYQQRTNGSPRLLIKYASESMSGIPSRFSGSGSGTDFTLSINTVESEDIADYYCQQSHSWPFTFGSGTNLEVKR
  IC50, neutralization of TNFα-induced apoptosis of L929 fibroblasts (100 pM human TNFα): 36.2 ng/ml
